Reference: PMC6431625 (Frontiers in Endocrinology, 2019)

By UniProt entry, the sequences of proteins in these tests, tags left out. Where a name states a change or a piece, a line headed by the entry shows the natural chain unless it says otherwise.
UniProt P43088: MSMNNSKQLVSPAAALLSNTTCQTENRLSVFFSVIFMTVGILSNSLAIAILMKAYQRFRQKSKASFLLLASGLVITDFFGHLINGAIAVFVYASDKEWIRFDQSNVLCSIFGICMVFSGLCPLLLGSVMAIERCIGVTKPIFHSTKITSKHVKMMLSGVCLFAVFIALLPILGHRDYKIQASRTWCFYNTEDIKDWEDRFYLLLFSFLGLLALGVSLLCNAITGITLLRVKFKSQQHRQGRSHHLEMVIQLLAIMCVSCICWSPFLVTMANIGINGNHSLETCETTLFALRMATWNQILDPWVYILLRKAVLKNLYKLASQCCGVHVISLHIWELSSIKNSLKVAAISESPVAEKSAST

Experiments:
[1] = target: T1, AT1R-Venus/FP-WT dimer (Homo sapiens, UniProt P30556+P43088); details: for EC50 value for β-arrestin 2-Rluc recruitment, range in words: HEK 293; for Effect of endocytosis inhibitor pretreatment on Ang II-induced β-arrestin 1/2-RlucII recruitment: pretreatment 30 min, sucrose 450 mM, phenylarsine oxide 2.5 μM, concanavalin A 0.4 g/L, Ang II 1 μM; for Allosteric effect of AT1R antagonist pretreatment on PGF2α-induced β-arrestin 2-RlucII recruitment / Allosteric effect of AT1R antagonist pretreatment on cloprostenol-induced β-arrestin 2-RlucII recruitment: pretreatment 1 μM for 30 min; for Allosteric effect of AT1R antagonist pretreatment on cloprostenol-induced β-arrestin 2-RlucII recruitment: cloprostenol 1 μM
[2] = target: T1, AT1R-Venus/FP-WT dimer; assay: cell-based
[3] = PGF2α 1 μM, AT1R-Venus/FP-WT dimer

Compound | EC50 value for β-arrestin 2-Rluc recruitment, range in words ([1]; AT1R-Venus/FP-WT dimer) | Allosteric effect of AT1R antagonist pretreatment on PGF2α-induced β-arrestin 2-RlucII recruitment ([1]; PGF2α 1 μM) | Allosteric effect of AT1R antagonist pretreatment on cloprostenol-induced β-arrestin 2-RlucII recruitment [1] | also measured
O=C(O)CCC/C=C\C[C@@H]1[C@@H](/C=C/[C@@H](O)COc2cccc(C(F)(F)F)c2)[C@H](O)C[C@@H]1O (racemic) [Fluprostenol] | low nanomolar to the picomolar range |  |  | 
O=C(O)CCC/C=C\C[C@@H]1[C@@H](/C=C/[C@H](O)C2Cc3ccccc3C2)[C@@H](F)C[C@@H]1O [AL-8810] | micromolar range |  |  | 
CC(C)OC(=O)CCC/C=C\C[C@@H]1[C@@H](CC[C@@H](O)CCc2ccccc2)[C@H](O)C[C@@H]1O [Latanoprost] | low nanomolar to the picomolar range |  |  | EC50 [2]: 6.1 nM
CCCCC[C@H](O)/C=C/[C@@H]1[C@@H](C/C=C\CCCC(=O)O)[C@@H](O)C[C@H]1O [PGF2α, prostaglandin F2α] |  |  |  | t1/2 of β-arrestin 2-RlucII recruitment [1, 3]: 17 min; t1/2 of βarr1-RlucII recruitment [1, 3]: 20 min
OC[C@H]1O[C@@](CO)(O[C@H]2O[C@H](CO)[C@@H](O)[C@H](O)[C@H]2O)[C@@H](O)[C@@H]1O [Sucrose, sucrose] |  |  |  | Effect of endocytosis inhibitor pretreatment on Ang II-induced β-arrestin 1/2-RlucII recruitment [1]: potentiated
CC(C)OC(=O)CCC/C=C\C[C@@H]1[C@@H](/C=C/C(F)(F)COc2ccccc2)[C@H](O)C[C@@H]1O [Tafluprost] | low nanomolar to the picomolar range |  |  | 
CCOc1nc2cccc(C(=O)O)c2n1Cc1ccc(-c2ccccc2-c2nc(=O)o[nH]2)cc1 [azilsartan] |  | allosterically inhibited | no allosteric effects | 
CCOc1nc2cccc(C(=O)O)c2n1Cc1ccc(-c2ccccc2-c2nnn[nH]2)cc1 [candersartan] |  | no allosteric effects | no allosteric effects | 
CCCCC1=NC2(CCCC2)C(=O)N1Cc1ccc(-c2ccccc2-c2nnn[nH]2)cc1 [irbesartan] |  | no allosteric effects | no allosteric effects | 
CCCCc1nc(Cl)c(CO)n1Cc1ccc(-c2ccccc2-c2nn[nH]n2)cc1 [losartan] |  | no allosteric effects | no allosteric effects | 
CCCc1nc2c(C)cc(-c3nc4ccccc4n3C)cc2n1Cc1ccc(-c2ccccc2C(=O)O)cc1 [telmisartan] |  | allosterically inhibited | allosterically inhibited | 
concanavalin A |  |  |  | Effect of endocytosis inhibitor pretreatment on Ang II-induced β-arrestin 1/2-RlucII recruitment [1]: potentiated
